One experiment addresses Substance-K receptor (Homo sapiens, UniProt P21452). In words: Binding affinity to human NK2 receptor by radioligand displacement assay. (Displacement assays read how much labelled ligand stays bound in the presence of the test substance.)
Experiment [1] concerns the target Prostaglandin E2 receptor EP2 subtype (Homo sapiens, UniProt P43116). In words: Binding affinity to human prostanoid EP2 receptor by radioligand displacement assay.

By UniProt entry, the sequences of proteins in these tests, tags left out. Where a name states a change or a piece, a line headed by the entry shows the natural chain unless it says otherwise.
UniProt P21452, whole entry: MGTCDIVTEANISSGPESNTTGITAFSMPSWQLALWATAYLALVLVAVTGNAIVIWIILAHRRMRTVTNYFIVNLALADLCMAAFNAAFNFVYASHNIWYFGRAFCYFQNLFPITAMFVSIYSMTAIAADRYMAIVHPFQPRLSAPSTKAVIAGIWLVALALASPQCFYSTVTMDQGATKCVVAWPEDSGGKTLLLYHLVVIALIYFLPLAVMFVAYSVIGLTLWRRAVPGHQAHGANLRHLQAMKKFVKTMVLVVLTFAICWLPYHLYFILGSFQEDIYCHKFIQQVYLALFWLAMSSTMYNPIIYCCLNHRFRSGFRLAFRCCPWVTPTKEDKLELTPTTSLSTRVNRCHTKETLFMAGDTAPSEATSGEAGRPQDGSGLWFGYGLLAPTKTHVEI
UniProt P43116: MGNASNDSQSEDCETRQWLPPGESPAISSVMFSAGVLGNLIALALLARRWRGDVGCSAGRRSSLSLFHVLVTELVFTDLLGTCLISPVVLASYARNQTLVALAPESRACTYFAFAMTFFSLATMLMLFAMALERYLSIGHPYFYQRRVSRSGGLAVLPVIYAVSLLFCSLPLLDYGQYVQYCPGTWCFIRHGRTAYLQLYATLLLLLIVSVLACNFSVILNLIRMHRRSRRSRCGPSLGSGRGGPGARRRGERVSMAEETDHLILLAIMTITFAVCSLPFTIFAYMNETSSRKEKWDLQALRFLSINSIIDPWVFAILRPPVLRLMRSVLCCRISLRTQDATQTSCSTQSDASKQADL

By Ki is commonly meant a measure of affinity in units of concentration, obtained from inhibition or displacement. The term IC50 denotes the concentration that gives 50% inhibition. Low readings indicate inhibition by little substance, high ones a need for much substance.

`CCCC[C@H](NC(=O)[C@H](CC(C)C)NC(=O)CNC(=O)[C@@H](NC(=O)[C@H](Cc1ccccc1)NC(=O)[C@H](CO)NC(=O)[C@@H](N)CC(=O)O)C(C)C)C(N)=O` gave a Ki at Substance-K receptor of 5 nM.

With `CCCCC[C@H](O)/C=C/[C@H]1[C@H](O)CC(=O)[C@@H]1C/C=C\CCCC(=O)O` [DINOPROSTONE], in experiment [1], the IC50 worked out at 3.3 nM and the Ki stood at 1.7 nM.

Source of the values: ChEMBL document CHEMBL2390830 (Eur J Med Chem, 2013).
